These results are taken from patent US20240226357A1, “Sanitization Method for Affinity Chromatography Matrices” (priority 2015, published 2024).

Like-named read-outs stand apart in the source and are kept apart here.

The test system of the series is Fab. To be noted: Capto L, compared to PBS control.

For `OO` [5% H2O2, hydrogen peroxide], the “Relative remaining SBC (%)” value (4 h incubation in SIP solution, 10' incubation with Fab sample) is given as 104% and the “Relative remaining SBC (%)” value (24 h incubation in SIP solution, 90' incubation with Fab sample) came to 105%.
